Reference: PMC5742776 (Foods, 2017)

System: dipeptidyl peptidase-IV (DPP-IV; EC 3.4.14.5)
Format: biochemical
Conditions: positive control; 37 °C, 30 min; fluorescence 355/460 nm; triplicate

- % DPP-IV inhibition: 87.4 ± 4%
Structure (SMILES): N[C@@H](CC(=O)N1CCn2c(nnc2C(F)(F)F)C1)Cc1cc(F)c(F)cc1F [sitagliptin, reference compound]
